The assay deals with Macrophage metalloelastase (Homo sapiens, UniProt P39900). Kind of assay: Inhibition of MMP12 by fluorimetric assay. Summed up: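 Enzyme source was the catalytic domain of each MMP. Inhibition was reported as Ki values.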

Chains of the proteins cited; added tags and fusions are not shown. Lines headed by an entry give the natural chain unless they say otherwise; changes in a name come on top.
UniProt P39900: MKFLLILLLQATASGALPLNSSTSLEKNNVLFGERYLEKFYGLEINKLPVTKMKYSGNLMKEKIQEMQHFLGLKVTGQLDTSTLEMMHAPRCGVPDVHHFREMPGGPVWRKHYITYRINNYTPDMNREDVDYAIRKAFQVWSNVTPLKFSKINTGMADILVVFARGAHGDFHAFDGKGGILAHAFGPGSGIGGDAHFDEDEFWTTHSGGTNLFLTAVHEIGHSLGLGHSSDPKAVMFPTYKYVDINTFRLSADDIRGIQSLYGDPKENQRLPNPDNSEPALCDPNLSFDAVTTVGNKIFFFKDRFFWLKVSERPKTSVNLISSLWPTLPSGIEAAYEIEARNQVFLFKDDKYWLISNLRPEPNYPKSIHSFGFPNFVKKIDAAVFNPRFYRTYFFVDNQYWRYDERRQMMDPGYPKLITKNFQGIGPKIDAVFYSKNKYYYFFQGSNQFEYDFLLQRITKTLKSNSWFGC

In the case of `O=C(CN(CCO)S(=O)(=O)c1ccc(-c2ccccc2)cc1)NO`, affinity was put at a Ki of 31 nM.

One may read the Ki as the dissociation constant of the complex between target and ligand, obtained from inhibition or displacement. A high value points to weaker binding.

Values taken from ChEMBL document CHEMBL1629518, “Structure-based approach to nanomolar, water soluble matrix metalloproteinases inhibitors (MMPIs)” (Eur J Med Chem, 2010).
